Measurements published in ChEMBL document CHEMBL5131569, “SAGE-718: A First-in-Class N-Methyl-d-Aspartate Receptor Positive Allosteric Modulator for the Potential Treatment of Cognitive Impairment” (J Med Chem, 2022).

Protein sequences, listed by entry. Tags and fused reporters are not part of them.
UniProt Q13224, whole entry, looked up: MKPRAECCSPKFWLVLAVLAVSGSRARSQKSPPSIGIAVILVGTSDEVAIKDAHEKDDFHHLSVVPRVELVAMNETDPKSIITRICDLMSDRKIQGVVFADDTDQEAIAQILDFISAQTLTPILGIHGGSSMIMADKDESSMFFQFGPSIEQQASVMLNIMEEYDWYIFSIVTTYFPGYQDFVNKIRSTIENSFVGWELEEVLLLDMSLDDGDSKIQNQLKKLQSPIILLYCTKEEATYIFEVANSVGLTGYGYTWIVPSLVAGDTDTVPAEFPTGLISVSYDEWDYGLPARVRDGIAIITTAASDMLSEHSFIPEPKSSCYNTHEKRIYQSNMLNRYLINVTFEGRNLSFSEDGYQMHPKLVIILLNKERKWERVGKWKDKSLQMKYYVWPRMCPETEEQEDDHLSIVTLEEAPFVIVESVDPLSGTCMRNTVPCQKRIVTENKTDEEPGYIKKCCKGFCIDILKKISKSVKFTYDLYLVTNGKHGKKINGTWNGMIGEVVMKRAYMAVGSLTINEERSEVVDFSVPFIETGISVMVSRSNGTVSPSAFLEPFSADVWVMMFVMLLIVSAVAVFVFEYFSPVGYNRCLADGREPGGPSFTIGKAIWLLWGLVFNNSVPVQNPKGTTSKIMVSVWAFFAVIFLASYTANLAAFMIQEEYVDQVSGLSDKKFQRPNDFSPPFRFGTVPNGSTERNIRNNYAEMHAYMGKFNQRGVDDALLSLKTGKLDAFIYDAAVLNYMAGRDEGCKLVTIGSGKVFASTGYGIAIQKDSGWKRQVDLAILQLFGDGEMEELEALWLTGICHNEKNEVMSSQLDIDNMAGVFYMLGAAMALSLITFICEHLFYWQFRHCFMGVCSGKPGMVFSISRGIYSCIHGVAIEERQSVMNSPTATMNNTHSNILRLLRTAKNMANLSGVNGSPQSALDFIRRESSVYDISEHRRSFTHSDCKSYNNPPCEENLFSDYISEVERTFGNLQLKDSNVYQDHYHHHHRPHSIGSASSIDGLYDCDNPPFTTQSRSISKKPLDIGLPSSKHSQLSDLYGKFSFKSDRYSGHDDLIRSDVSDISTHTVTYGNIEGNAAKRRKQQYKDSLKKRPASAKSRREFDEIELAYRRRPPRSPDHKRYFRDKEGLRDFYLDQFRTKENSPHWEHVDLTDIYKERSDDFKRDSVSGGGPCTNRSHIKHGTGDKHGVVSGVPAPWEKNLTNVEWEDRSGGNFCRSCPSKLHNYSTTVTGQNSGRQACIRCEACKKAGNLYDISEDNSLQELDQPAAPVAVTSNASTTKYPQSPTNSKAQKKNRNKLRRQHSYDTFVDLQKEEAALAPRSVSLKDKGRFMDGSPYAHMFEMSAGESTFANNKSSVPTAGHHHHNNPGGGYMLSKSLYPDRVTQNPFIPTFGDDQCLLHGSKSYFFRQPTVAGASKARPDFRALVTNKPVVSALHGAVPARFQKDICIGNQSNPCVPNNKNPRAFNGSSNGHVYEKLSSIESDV
UniProt Q12879, whole entry, looked up: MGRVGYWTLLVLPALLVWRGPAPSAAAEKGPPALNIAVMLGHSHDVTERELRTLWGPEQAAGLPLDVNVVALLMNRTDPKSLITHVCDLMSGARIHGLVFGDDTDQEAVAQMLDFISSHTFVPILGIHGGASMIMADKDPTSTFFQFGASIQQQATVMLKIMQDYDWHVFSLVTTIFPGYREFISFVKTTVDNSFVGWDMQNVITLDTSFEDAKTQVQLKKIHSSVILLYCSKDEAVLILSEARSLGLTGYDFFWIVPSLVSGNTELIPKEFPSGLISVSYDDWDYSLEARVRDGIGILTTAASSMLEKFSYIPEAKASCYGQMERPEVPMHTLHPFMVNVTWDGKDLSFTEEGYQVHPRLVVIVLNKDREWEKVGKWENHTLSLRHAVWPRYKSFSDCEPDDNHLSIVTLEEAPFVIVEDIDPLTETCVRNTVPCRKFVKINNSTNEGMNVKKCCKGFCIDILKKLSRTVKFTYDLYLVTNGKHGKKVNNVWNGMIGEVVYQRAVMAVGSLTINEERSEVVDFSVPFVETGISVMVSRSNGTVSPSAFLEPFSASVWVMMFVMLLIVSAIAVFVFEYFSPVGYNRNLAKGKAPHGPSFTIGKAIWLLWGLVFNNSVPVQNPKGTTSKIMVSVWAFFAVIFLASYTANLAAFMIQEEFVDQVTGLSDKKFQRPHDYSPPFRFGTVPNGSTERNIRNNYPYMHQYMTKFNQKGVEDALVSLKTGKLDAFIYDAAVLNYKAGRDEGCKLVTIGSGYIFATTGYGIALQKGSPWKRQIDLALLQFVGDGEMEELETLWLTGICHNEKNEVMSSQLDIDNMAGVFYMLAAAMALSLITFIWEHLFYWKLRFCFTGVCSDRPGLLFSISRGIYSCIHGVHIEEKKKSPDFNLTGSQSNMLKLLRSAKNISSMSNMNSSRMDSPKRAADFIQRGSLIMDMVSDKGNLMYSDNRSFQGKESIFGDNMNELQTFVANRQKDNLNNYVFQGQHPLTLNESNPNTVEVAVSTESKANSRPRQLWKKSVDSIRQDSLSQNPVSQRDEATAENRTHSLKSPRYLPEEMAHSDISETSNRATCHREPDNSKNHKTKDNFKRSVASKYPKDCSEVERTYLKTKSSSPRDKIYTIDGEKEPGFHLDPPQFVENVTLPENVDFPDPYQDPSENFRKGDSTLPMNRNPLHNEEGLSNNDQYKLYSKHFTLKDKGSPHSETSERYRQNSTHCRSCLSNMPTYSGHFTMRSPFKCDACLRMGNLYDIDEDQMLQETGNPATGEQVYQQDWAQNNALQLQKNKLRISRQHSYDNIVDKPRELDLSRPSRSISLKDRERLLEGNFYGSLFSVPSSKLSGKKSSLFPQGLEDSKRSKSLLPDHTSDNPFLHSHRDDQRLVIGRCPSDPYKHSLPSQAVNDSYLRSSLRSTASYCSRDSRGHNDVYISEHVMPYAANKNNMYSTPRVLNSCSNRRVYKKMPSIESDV

Tests used:
[1] = biological target: Glutamate NMDA receptor; GRIN1/GRIN2B (Homo sapiens, UniProt Q05586+Q13224); test: Positive allosteric modulation of recombinant human GluN1/GluN2B receptor stably expressed in HEK293 cells assessed as increase in glycine/L-glutamate-induced channel current at -70 mV holding potential by whole cell patch clamp method relative to control; format: cell-based; conditions: filed as positive allosteric modulator
[2] = biological target: Glutamate NMDA receptor; GRIN1/GRIN2A (Homo sapiens, UniProt Q05586+Q12879); test: Positive allosteric modulation of recombinant human GluN1/GluN2A receptor stably expressed in HEK293 cells assessed as increase in glycine/L-glutamate-induced channel current at -70 mV holding potential by whole cell patch clamp method relative to control; format: cell-based; conditions: filed as positive allosteric modulator

| Structure (SMILES) | Emax [1] | Emax [2] |
| --- | --- | --- |
| C[C@H](CC[C@](C)(O)C(F)(F)F)[C@H]1CC[C@H]2[C@@H]3CC=C4C[C@@](C)(O)CC[C@]4(C)[C@H]3CC[C@]12C [DALZANEMDOR] | 370% | 310% |
| C[C@H](CC[C@](C)(O)C(F)(F)F)[C@H]1CC[C@H]2[C@@H]3CC=C4C[C@](C)(O)CC[C@]4(C)[C@H]3CC[C@]12C | 210% | 220% |
| C[C@H](CC[C@@](C)(O)C(F)(F)F)[C@H]1CC[C@H]2[C@@H]3CC=C4C[C@@](C)(O)CC[C@]4(C)[C@H]3CC[C@]12C | 200% | 210% |
